# According to patent US5610025A, “Inhibition of interfering endogenous enzyme activity in assays of biological fluids” (Actimed Laboratories, Inc., priority 1993, dated 1997):
# The chains behind the UniProt entries cited, without tags or fusion partners. Residues count along the entry.
# UniProt P04040, 2-527 limits assumed: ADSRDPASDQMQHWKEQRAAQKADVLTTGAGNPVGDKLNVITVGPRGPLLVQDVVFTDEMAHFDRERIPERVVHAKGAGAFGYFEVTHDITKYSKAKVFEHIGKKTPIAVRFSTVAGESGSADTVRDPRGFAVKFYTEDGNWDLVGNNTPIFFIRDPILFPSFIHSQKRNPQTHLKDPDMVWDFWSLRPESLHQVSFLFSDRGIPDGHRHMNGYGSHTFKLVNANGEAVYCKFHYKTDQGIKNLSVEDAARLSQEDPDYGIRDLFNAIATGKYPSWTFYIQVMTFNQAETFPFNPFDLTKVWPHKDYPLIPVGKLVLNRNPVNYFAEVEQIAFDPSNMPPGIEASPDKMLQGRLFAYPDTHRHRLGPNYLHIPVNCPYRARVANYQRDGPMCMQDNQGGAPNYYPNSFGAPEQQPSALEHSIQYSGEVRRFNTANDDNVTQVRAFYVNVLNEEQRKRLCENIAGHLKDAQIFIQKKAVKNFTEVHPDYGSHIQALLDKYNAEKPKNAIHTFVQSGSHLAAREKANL
# Target: catalase (Homo sapiens, UniProt P04040)
# Test: Catalase inhibitor screening, aqueous hydrogen peroxide samples with added catalase, dye indicator/peroxidase system, absorbance at 514 nm
# Type: biochemical
# Conditions: inhibitor concentration 40 mM
structure (smiles),measurement,value
[N-]=[N+]=[N-] [Sodium azide],% Recovery (of absorbance),109%
